Results as given in BindingDB's records for doi:10.1016/j.str.2004.10.004 (Plexxikon, 2004).
pIC50: −log10 of the molar value.

Tests used:
[1] = biological target: T1, cAMP-specific 3',5'-cyclic phosphodiesterase 4B [316-320,321-700,S319G,N320S,N321H,T322M] (Homo sapiens, UniProt Q07343, S319G/N320S/N321H/T322M); assay: Phosphodiesterase (PDE) Inhibition Assay
T1 construct: 316-320,321-700

[2] = biological target: cAMP-specific 3',5'-cyclic phosphodiesterase 4D [372-376,381-715,S375G,I381V,S383G,G384S,V385H,K386M) (Homo sapiens, UniProt Q08499, S375G/I381V/S383G/G384S/V385H/K386M); assay: Phosphodiesterase (PDE) Inhibition Assay

- pIC50 [1]: 5.04
- pIC50 [2]: 4.72
Compound: CN1CC(=O)N2[C@H](c3ccc4c(c3)OCO4)c3[nH]c4ccccc4c3C[C@@H]2C1=O
